Patent US11708500B2, “Solvent compounds for use as coalescents” (TBF ENVIRONMENTAL TECHNOLOGY INC., priority 2017, dated 2023)

Test: Physical/chemical properties of XTR5

CCCCOCC(C)OC(=O)OC(C)COCCCC (centres unmarked) [XTR5, bis(1-butoxypropan-2-yl) carbonate]
Lower Explosive Limit (LEL %): 0.40%
Upper Explosive Limit (UEL %): 7.04%
